The values below come from patent US20140127159A1, “HCV Combination Therapy” (Stella ApS, priority 2011, published 2014).

Values joined by “and” are separate entries in the source; they are usually repeats but may differ in a detail not shown here. Equal values may be shown once.

In series [1] the test system is HCV genotype Ib replicon in Huh-luc/neoET cells. It counts as cell-based.
In series [2] the test system is Huh-luc/neo-ET.

For the substance “Interferon alpha-2b: Interferon-a2b purchased from R&D Systems”, the “Efficacy, Synergy vol” value in series [1] is 10.75/−38.2; 10.33/0 μM^2%. Besides, the “Efficacy, Antagonism vol” value in series [1] (in combination with miravirsen (SPC3649), 95% confidence interval, median (≧3 experiments) or individual values) is −38.2 μM^2% and 0 μM^2%. For the same substance, the “Cytotoxicity, Synergy vol” value in series [2] is reported as 0/0; 0/−8.9 μM^2%.
